Measurements taken from patent US20180207148A1 (priority 2015, published 2018).

Experiments:
[1] = Paclitaxel pharmacokinetics in rats after single oral dose with Compound A; conditions: rat, in vivo
[2] = Paclitaxel pharmacokinetics in dogs after single oral dose with Compound A; conditions: dog, in vivo
[3] = in vivo; conditions: dog, po, 6 mg/kg, dogs, Fasted, paclitaxel 6 mg/kg with Compound A 3 mg/kg, single oral dose
[4] = clinical; conditions: human, in vivo, po

Work on `CC(=O)O[C@H]1C(=O)[C@@]2(C)[C@H]([C@H](OC(=O)c3ccccc3)[C@]3(O)C[C@H](OC(=O)[C@H](O)[C@@H](NC(=O)c4ccccc4)c4ccccc4)C(C)=C1C3(C)C)[C@]1(OC(C)=O)CO[C@@H]1C[C@@H]2O` [Paclitaxel, 5,20-Epoxy-1,2,4,7,10-13-hexahydroxytax-11-en-9-one-4,10-diacetate 2-benzoate 13-ester with (2R,3S)—N-benzoyl-3-phenylisoserine] yielded a half-life ([1]; 5 mg/kg) of 8.2 h, a half-life ([1]; 10 mg/kg) of 8.7 h and a half-life ([1]; 20 mg/kg) of 7.5 h. For the same molecule, the Cmax ([2]; 2 mg/kg) was 128 ng/mL, the half-life ([2]; 2 mg/kg) was 7.4 h and the Cmax ([2]; 4 mg/kg) was 661 ng/mL. The half-life ([2]; 4 mg/kg) was 8.1 h, the Cmax ([2]; 6 mg/kg) was 1110 ng/mL and the half-life ([2]; 6 mg/kg) was 7.3 h. It also gave a Cmax [3] of 684 ± 175 ng/mL, a Cmax ([4]; 120 mg/m2) of 655 ng/mL and a Cmax ([4]; 360 mg/m2) of 655 ng/mL. For the same molecule, the Cmax ([4]; 420 mg/m2) was 708 ng/mL.
